Reference: patent publication US20160033531A1, “METHOD AND COMPOSITIONS FOR DETECTING BINDING TO THE PREGNANE X RECEPTOR” (ST. JUDE CHILDREN'S RESEARCH HOSPITAL, priority 2013, published 2016)

Assays:
GST-PXRLBD [1] = target: T1, GST-PXRLBD (Homo sapiens, UniProt O75469); assay: Optimization of probe concentration for hPXR TR-FRET binding assays; settings: DMSO, no hPXR protein
T1 sequence (O75469 146-433 limits assumed): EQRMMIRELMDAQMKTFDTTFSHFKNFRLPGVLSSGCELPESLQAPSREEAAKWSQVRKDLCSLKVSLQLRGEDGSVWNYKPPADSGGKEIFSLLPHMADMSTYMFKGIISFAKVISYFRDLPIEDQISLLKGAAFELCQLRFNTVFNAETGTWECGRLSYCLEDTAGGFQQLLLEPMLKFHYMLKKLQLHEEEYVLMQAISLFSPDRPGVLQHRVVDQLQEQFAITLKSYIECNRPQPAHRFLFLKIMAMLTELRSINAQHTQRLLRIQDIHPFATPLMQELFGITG

GST-PXRLBD [2] = target: T1, GST-PXRLBD

## 7-(3-(((3aR,4R,5S,10bR)-3a-ethyl-9-((3S,5S,7S,9S)-5-ethyl-5-hydroxy-9-(methoxycarbonyl)-2,4,5,6,7,8,9,10-octahydro-1H-3,7-methano[1]azacycloundecino[5,4-b]indol-9-yl)-5-hydroxy-8-methoxy-5-(methoxycarbonyl)-6-methyl-3a,3a^1,4,5,5a,6,11,12-octahydro-1H-indolizino[8,1-cd]carbazol-4-yl)oxy)-3-oxopropyl)-5,5-difluoro-1,3-dimethyl-5H-dipyrrolo[1,2-c:2′,1′-f][1,3,2]diazaborinin-4-ium-5-uide [BFLV]
GST-PXRLBD [1]; 100 nM BFLV
  Fluorescent emission ratio in the absence of GST-hPXR-LBD: 0.019
GST-PXRLBD [1]; 250 nM BFLV
  Fluorescent emission ratio in the absence of GST-hPXR-LBD: 0.025
GST-PXRLBD [1]; 500 nM BFLV
  Fluorescent emission ratio in the absence of GST-hPXR-LBD: 0.04

## Clc1ccccc1C(c1ccccc1)(c1ccccc1)n1ccnc1 [Clotrimazole, clotrimazole]
GST-PXRLBD [2]
  Ki: 1410 nM
